Measurements as given in US20100316573A1, “Organic Compounds” (priority 2006, published 2010).

System: TNFα mRNA in SKOV-3 cells
Assay: TNFα mRNA induction in SKOV-3 cells (FIG. 2), fold increase relative to untreated cells

Substance: N-D-Cyclohexyl-2-(2-{2-[(4-fluorophenyl)-methyl-amino]-pyridin-4-yl}pyrrolidin-1-yl)-2-oxo-ethyl]-2-methylamino-propinamide [Compound II]
- fold increase of TNF relative to untreated cells (100 nM compound alone): ~50 fold increase
- fold increase of TNF relative to untreated cells (1000 nM compound + PI (MG132)): 25-30 fold increase
- fold increase of TNF relative to untreated cells (1000 nM compound alone): 120-130 fold increase
